The source of these data is patent publication US5373089A, “Oxytocin antagonist” (Northwestern University, priority 1993, dated 1994).

The test system of one test is ADH. Put plainly: ADH bioassay (alteration in urine output due to ADH). The conditions noted are these: relative to A = 1.000. Format: in vivo. How it is done:
The above compound was also tested for antagonism to vasopressin. Anti-ADH activity can be determined by measuring the alteration in urine output due to ADH in the presence and absence of the antagonist. A suitable ADH-assay is described in Sawyer, et al., Endocrinology, 63:694 (1958). […] The ratio of oxytocin antagonism to ADH antagonism was very high, viz. over 1, 866, as compared with 200 for the compositions disclosed in the parent applications.
The anti-ADH activity is measured by the alteration in urine […] in the presence and absence of the antagonist to determine the specificity of the antagonist. The anti-ADH assay is described in Sawyer, et al., Endocrinology, 63:694 (1958).

A further test deals with ESTROUS RAT UTERUS. Put plainly: Oxytocic bioassay (isolated rat uterus, integrated contraction response to oxytocin). Format: cell-based. To be noted: relative to B = 1.0. An excerpt: The protocol used for the oxytocin bioassay procedure is derived from procedures described in a paper by Sawyer, et al., Endocrinology, 106:81 (1980), which in turn was based on reports of Munsick, Brit. J. Pharmacol., 3:328 (1960), and Holton, Brit. J. Pharmacol., 3:328 (1948). The assay calculations for the pA2 estimates are described by Schild, British J. Pharmacology, 2:189 (1947). The major difference in the present procedure from those reported by others in the field is that the area under the contraction is integrated where most other techniques calculate the amplitude. Integration provides much more consistent and reliable results although the pA2 estimates are approximately an order of magnitude lower than those reported using amplitude of the contraction as the endpoint.
1. Animals--a 1.5 cm piece of uterus from a virgin rat (Holtzman) in natural estrus is used for the assay.
2. Buffer/Assay Bath--The buffer used is Munsicks. This buffer contains 0.5 mM Mg^++ which reduces the pA2 estimates, but the results are reported to correlate better with in vivo data (Sawyer, et al., 1980). […]
(e) Calculations for pA2 : The dose-response (DR) ratios are calculated for antagonist and a Schild's Plot is performed by plotting the Log (DR-1) vs. Log of antagonist concentration. The line plotted is calculated by least squares regression analysis. […]

The target in another test is T1, HUMAN OXYTOCIN RECEPTOR (Homo sapiens, UniProt P30559).
T1 construct: Oxytocin receptors (OTrs) reside on the cell membrane and are present at high concentrations at the end of pregnancy in uterine tissue; from tissue; host or cells: human myometrium from cesarean section patients, sucrose-gradient membrane fraction
T1 sequence (P30559 1-389): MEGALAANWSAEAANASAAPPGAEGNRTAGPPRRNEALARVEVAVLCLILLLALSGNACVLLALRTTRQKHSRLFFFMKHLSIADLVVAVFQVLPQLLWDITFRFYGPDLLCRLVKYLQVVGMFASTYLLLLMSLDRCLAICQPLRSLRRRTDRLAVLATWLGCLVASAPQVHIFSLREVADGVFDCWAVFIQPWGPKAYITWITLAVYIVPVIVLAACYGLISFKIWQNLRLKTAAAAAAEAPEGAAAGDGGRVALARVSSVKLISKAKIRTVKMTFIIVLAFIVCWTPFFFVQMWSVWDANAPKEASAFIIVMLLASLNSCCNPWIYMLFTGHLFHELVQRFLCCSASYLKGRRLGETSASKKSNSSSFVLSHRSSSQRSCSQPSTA
Put plainly: Oxytocin receptor assay, human myometrial tissue membranes, 3H-OT competition. It is filed as binding. The procedure:
Human myometrial tissue was collected from patients at the time of cesarian section after informed consent. The tissue was rinsed in cold buffer, cut into small pieces and frozen at -70° C. until homogenization.
Oxytocin receptors (OTrs) reside on the cell membrane and are present at high concentrations at the end of pregnancy in uterine tissue. Frozen tissue is homogenized in Tris buffer, the homogenate filtered, and the filtrate centrifuged at 1000 g for 15 minutes at 4° C. The supernatant is centrifuged at 40,000 g for 30 minutes and the pellet containing the cell membranes resuspended in 10% sucrose. […]
The binding assay consist of 0.1 ml of 20,000 cmp of tritium labeled OT (New England Nuclear, […]), 0.1 ml of OT antagonist added at increasing concentration, 0.25 ml of buffer and 0.05 ml of membrane (70-150 ug protein). […] The resulting pellet containing the bound ^3 H-OT is dissolved in 0.1N NaOH at 45 ° C. for 30 minutes and this mixture is then placed in liquid scintillation counting fluid and counted for dpms in a scintillation counter.
The data is analyzed by nonlinear curve fitting methods using McPherson's EBDA (J Pharmacol Methods 14:213-228, 1985) and Munson and Rodbard's LIGAND (Anal Biochem 107:220-239, 1980) program for saturation and competition analysis for determining Kds and Kis.

With “[(S)Pmp^1,D-Trp^2,Pen^6,Arg^8 ] oxytocin [Compound D]”, the “ADH Bioassay Relative Anti-ADH Activity” value in the test on ADH was 0.012. For the same substance, the “Oxytocic Bioassay Relative Anti-Oxytocic Activity” value with ESTROUS RAT UTERUS came out at 22.4. Besides, the “RECEPTOR ASSAY Ka” value at HUMAN OXYTOCIN RECEPTOR (myometrial tissue from women at term by C-section, Table 4) was 41.7 10^+8 M^-1. Further, the “hOTR (OTA/ANTI)” value on HUMAN OXYTOCIN RECEPTOR (ratio of binding affinity to ANTAG I, human oxytocin receptor) was determined as 81.8.
